The target in this experiment is mIgE.FcL on Ramos cells: segment of the long isoform of the mIgE ε chain spanning from the CH2 to the cytoplasmic peptide, including the EMPD (human) (UniProt P01854). In words: cell-based or functional assay.

For “Xolair, a humanized anti-IgE monoclonal antibody”, the EC50 of apoptosis (% Annexin V+/PI-) of mIgE.FcL-expressing Ramos cells came out at 0.121 µg/mL.

The values above are taken from patent US20230270848A1.
